Laboratory results from paper doi:10.1101/757047v1 (biorxiv, 2019).

Molecular target: T1, full length GAK protein N-terminally fused with NanoLuc luciferase (Homo sapiens, UniProt O14976)
T1 sequence (O14976 2-1311): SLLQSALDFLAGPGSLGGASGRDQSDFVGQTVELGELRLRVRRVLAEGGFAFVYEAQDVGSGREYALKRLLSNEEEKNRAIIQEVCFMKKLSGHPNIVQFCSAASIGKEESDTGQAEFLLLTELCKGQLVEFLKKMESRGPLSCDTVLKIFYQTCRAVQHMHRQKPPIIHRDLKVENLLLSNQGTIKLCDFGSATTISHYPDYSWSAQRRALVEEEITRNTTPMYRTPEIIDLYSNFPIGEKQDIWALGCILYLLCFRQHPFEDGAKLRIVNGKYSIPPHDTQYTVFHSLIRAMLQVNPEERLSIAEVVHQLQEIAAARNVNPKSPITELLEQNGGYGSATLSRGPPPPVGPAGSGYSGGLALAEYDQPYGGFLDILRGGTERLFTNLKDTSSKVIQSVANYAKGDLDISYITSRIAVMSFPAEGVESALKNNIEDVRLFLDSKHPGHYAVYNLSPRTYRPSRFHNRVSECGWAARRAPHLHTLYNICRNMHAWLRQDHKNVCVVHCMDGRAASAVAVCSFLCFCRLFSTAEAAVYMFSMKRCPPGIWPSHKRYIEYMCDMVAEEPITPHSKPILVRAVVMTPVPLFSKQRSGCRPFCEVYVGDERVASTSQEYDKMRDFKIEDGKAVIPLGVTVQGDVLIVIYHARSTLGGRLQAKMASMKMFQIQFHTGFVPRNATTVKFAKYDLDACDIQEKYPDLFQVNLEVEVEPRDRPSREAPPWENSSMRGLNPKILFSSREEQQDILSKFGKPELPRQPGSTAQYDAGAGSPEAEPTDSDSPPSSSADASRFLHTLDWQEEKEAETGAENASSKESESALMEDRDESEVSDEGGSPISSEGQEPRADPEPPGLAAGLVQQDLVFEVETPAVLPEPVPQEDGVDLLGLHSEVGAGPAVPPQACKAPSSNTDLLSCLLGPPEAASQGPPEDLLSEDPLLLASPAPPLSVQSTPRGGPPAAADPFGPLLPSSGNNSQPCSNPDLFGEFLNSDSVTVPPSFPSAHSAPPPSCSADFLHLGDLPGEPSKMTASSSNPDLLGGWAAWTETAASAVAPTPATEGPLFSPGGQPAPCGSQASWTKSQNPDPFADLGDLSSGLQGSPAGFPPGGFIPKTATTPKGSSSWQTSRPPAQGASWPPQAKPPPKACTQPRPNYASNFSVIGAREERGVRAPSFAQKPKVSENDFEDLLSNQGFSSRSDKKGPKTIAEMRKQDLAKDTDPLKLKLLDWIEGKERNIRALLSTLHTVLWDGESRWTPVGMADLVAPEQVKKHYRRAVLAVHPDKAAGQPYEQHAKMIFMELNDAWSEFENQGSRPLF
Assay: nanoBRET cellular target engagement
Assay type: cell-based
Conditions: HEK293T cells, tracer displacement, n=[…] mean

SMILES: COc1cc(Nc2ccnc3ccc(Br)cc23)cc(OC)c1OC [compound 2, SGC-GAK-1]
- IC50: 48 nM
